Test system: dopamine receptor D1
Settings: HEK293A cells, FIG. 4B

Compound: CCCN1CCC[C@@H]2Cc3n[nH]cc3C[C@H]21 [quinpirole]
- response of the dopamine receptor D1 fluorescent biosensor (normalized intensity): did not response
